As usually defined, the Ki is the dissociation constant of the complex between target and ligand, obtained from inhibition or displacement.

Chains of the proteins cited; added tags and fusions are not shown.
UniProt P32245, whole entry: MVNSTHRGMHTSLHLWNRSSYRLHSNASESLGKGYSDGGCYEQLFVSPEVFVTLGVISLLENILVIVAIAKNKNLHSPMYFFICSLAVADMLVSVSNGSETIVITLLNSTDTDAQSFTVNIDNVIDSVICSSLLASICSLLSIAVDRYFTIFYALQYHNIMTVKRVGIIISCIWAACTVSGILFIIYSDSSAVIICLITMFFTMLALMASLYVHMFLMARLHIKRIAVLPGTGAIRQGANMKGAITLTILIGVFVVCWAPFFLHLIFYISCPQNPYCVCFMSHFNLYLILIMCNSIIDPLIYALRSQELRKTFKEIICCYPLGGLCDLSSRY

SMILES strings stand for the structures.

For the assay, the target named is MC4 (Homo sapiens, UniProt P32245). To be noted: read-out: MC4 Ki.
Turning to `CC(=O)N[C@@H](CCCNC(N)=O)C(=O)N[C@H]1CSSC[C@@H](C(N)=O)NC(=O)[C@H](Cc2c[nH]c3ccccc23)NC(=O)[C@H](CCCNC(=N)N)NC(=O)[C@@H](Cc2ccccc2)NC(=O)[C@H](Cc2cn(C)cn2)NC(=O)[C@H](CCC(=O)O)NC1=O` [Compound No. 56, Ac-Cit-cyclo[Cys-Glu-(1-Me-His)-D-Phe-Arg-Trp-Cys]-NH2], the Ki was 23.4 nM. Next, `CC(=O)N[C@@H](CC(C)C)C(=O)N[C@H]1CSSC[C@@H](C(N)=O)NC(=O)[C@H](Cc2c[nH]c3ccccc23)NC(=O)[C@H](CCCNC(=N)N)NC(=O)[C@@H](Cc2ccccc2)NC(=O)[C@H](Cc2c[nH]cn2)NC(=O)[C@H](CCC(=O)O)NC1=O` [Compound No. 57, Ac-Leu-cyclo[Cys-Glu-His-D-Phe-Arg-Trp-Cys]-NH2]: 2.26 nM; `CC(=O)N[C@@H](CCCCN)C(=O)N[C@H]1CSSC[C@@H](C(N)=O)NC(=O)[C@H](Cc2c[nH]c3ccccc23)NC(=O)[C@H](CCCNC(=N)N)NC(=O)[C@@H](Cc2ccccc2)NC(=O)[C@H](Cc2c[nH]cn2)NC(=O)[C@H](CCC(=O)O)NC1=O` [Compound No. 58, Ac-Lys-cyclo[Cys-Glu-His-D-Phe-Arg-Trp-Cys]-NH2]: 0.81 nM. As for `CCCC[C@H](NC(C)=O)C(=O)N[C@H]1CSSC[C@@H](C(N)=O)NC(=O)[C@H](Cc2c[nH]c3ccccc23)NC(=O)[C@H](CCCNC(=N)N)NC(=O)[C@@H](Cc2ccccc2)NC(=O)[C@H](Cc2c[nH]cn2)NC(=O)[C@H](CCC(=O)O)NC1=O` [Compound No. 60, Ac-nLeu-cyclo[Cys-Glu-His-D-Phe-Arg-Trp-Cys]-NH2], the inhibitory constant (Ki) is 1.51 nM. The same measure for `CCCC[C@H](NC(C)=O)C(=O)N[C@H]1CSSC[C@@H](C(=O)N[C@@H](CO)C(=O)N2CCC[C@H]2C(N)=O)NC(=O)[C@H](Cc2c[nH]c3ccccc23)NC(=O)[C@H](CCCNC(=N)N)NC(=O)[C@@H](Cc2ccccc2)NC(=O)[C@H](Cc2c[nH]cn2)NC(=O)[C@H](CCC(=O)O)NC1=O` [Compound No. 61, Ac-nLeu-cyclo[Cys-Glu-His-D-Phe-Arg-Trp-Cys]-Ser-Pro-NH2]: 0.87 nM; for `CC(=O)N[C@H](C(=O)N[C@H]1CSSC[C@@H](C(N)=O)NC(=O)[C@H](Cc2c[nH]c3ccccc23)NC(=O)[C@H](CCCNC(=N)N)NC(=O)[C@@H](Cc2ccccc2)NC(=O)[C@H](Cc2c[nH]cn2)NC(=O)[C@H](CCC(=O)O)NC1=O)C(C)C` [Compound No. 63, Ac-Val-cyclo[Cys-Glu-His-D-Phe-Arg-Trp-Cys]-NH2]: 2.28 nM; for `N=C(N)NCCC[C@@H]1NC(=O)[C@@H](Cc2ccccc2)NC(=O)[C@H](Cc2c[nH]cn2)NC(=O)[C@H](CCC(=O)O)NC(=O)[C@@H](NC(=O)[C@@H](CCCNC(=N)N)NS(=O)(=O)c2ccc3ccccc3c2)CSSC[C@@H](C(N)=O)NC(=O)[C@H](Cc2c[nH]c3ccccc23)NC1=O` [Compound No. 64, N-(2-naphthalenesulfonyl)-D-Arg-cyclo[Cys-Glu-His-D-Phe-Arg-Trp-Cys]-NH2]: 0.62 nM.

Turning to `N=C(N)NCCC[C@H](NC(=O)CCc1ccc(O)cc1)C(=O)N[C@H]1CSSC[C@@H](C(N)=O)NC(=O)[C@H](Cc2c[nH]c3ccccc23)NC(=O)[C@H](CCCNC(=N)N)NC(=O)[C@@H](Cc2ccccc2)NC(=O)[C@H](Cc2c[nH]cn2)NC(=O)[C@H](CCC(=O)O)NC1=O` [Compound No. 66, 3-(4-hydroxyphenyl)propionyl-Arg-cyclo[Cys-Glu-His-D-Phe-Arg-Trp-Cys]-NH2], the Ki was determined as 0.83 nM. On to `N=C(N)NCCC[C@H](NC(=O)[C@@H](N)Cc1ccc(O)cc1)C(=O)N[C@H]1CSSC[C@@H](C(N)=O)NC(=O)[C@H](Cc2c[nH]c3ccccc23)NC(=O)[C@H](CCCNC(=N)N)NC(=O)[C@@H](Cc2ccccc2)NC(=O)[C@H](Cc2c[nH]cn2)NC(=O)[C@H](CCC(=O)O)NC1=O` [Compound No. 68, Tyr-Arg-cyclo[Cys-Glu-His-D-Phe-Arg-Trp-Cys]-NH2], for which the Ki was 0.63 nM. The same measure for `N=C(N)NCCC[C@H](NC(=O)[C@@H](N)Cc1ccc(O)cc1)C(=O)N[C@H]1CSSC[C@@H](C(=O)N[C@@H](CCC(=O)O)C(N)=O)NC(=O)[C@H](Cc2c[nH]c3ccccc23)NC(=O)[C@H](CCCNC(=N)N)NC(=O)[C@@H](Cc2ccccc2)NC(=O)[C@H](Cc2c[nH]cn2)NC(=O)[C@H](CCC(=O)O)NC1=O` [Compound No. 71, Tyr-Arg-cyclo[Cys-Glu-His-D-Phe-Arg-Trp-Cys]-Glu-NH2]: 2.11 nM. Next, `CC(=O)N[C@@H](Cc1ccc(O)cc1)C(=O)N[C@@H](CCCNC(=N)N)C(=O)N[C@H]1CSSC[C@@H](CO)NC(=O)[C@H](Cc2c[nH]c3ccccc23)NC(=O)[C@H](CCCNC(=N)N)NC(=O)[C@@H](Cc2ccccc2)NC(=O)[C@H](Cc2c[nH]cn2)NC(=O)[C@H](CCC(=O)O)NC1=O` [Compound No. 78, Ac-Tyr-Arg-cyclo[Cys-Glu-His-D-Phe-Arg-Trp-Cys] alcohol]: 7.28 nM; `CC(=O)N[C@@H](Cc1ccc(O)cc1)C(=O)N[C@@H](CCCNC(=N)N)C(=O)N[C@H]1CSSC[C@@H](C(N)=O)NC(=O)[C@H](Cc2c[nH]c3ccccc23)NC(=O)[C@H](CCCNC(=N)N)NC(=O)[C@@H](Cc2ccccc2)NC(=O)[C@H](Cn2cccn2)NC(=O)[C@H](CCC(=O)O)NC1=O` [Compound No. 102, Ac-Tyr-Arg-cyclo[Cys-Glu-(1-pyrazolyl-Ala)-D-Phe-Arg-Trp-Cys]-NH2]: 105 nM.

For `CC(=O)N[C@@H](Cc1ccc(O)cc1)C(=O)N[C@@H](CCCNC(=N)N)C(=O)N[C@H]1CSSC[C@@H](C(N)=O)NC(=O)[C@H](Cc2c[nH]c3ccccc23)NC(=O)[C@H](CCCNC(=N)N)NC(=O)[C@@H](Cc2ccccc2)NC(=O)[C@H](Cc2nc(-c3ccccc3)c[nH]2)NC(=O)[C@H](CCC(=O)O)NC1=O` [Compound No. 103, Ac-Tyr-Arg-cyclo[Cys-Glu-(4-phenyl-1H-imidazol-2-yl-Ala)-D-Phe-Arg-Trp-Cys]-NH2], the Ki is 6.62 nM. For the compound `CC(=O)N[C@@H](Cc1ccc(O)cc1)C(=O)N[C@@H](CCCNC(=N)N)C(=O)N[C@H]1CSSC[C@@H](C(N)=O)NC(=O)[C@H](Cc2c[nH]c3ccccc23)NC(=O)[C@H](CCCNC(=N)N)NC(=O)[C@@H](Cc2ccccc2)NC(=O)[C@@H](Cc2nc(-c3ccccc3)c[nH]2)NC(=O)[C@H](CCC(=O)O)NC1=O` [Compound No. 104, Ac-Tyr-Arg-cyclo[Cys-Glu-(4-phenyl-1H-imidazol-2-yl-D-Ala)-D-Phe-Arg-Trp-Cys]-NH2], the Ki came to 136 nM. Next, `CC(=O)N[C@@H](Cc1ccc(O)cc1)C(=O)N[C@@H](CCCNC(=N)N)C(=O)N[C@H]1CSSC[C@@H](C(N)=O)NC(=O)[C@H](Cc2c[nH]c3ccccc23)NC(=O)[C@H](CCCNC(=N)N)NC(=O)[C@@H](Cc2ccccc2)NC(=O)[C@H](Cc2cnccn2)NC(=O)[C@H](CCC(=O)O)NC1=O` [Compound No. 105, Ac-Tyr-Arg-cyclo[Cys-Glu-(2-pyrazine-Ala)-D-Phe-Arg-Trp-Cys]-NH2]: 20.8 nM; `CC(=O)N[C@@H](Cc1ccc(O)cc1)C(=O)N[C@@H](CCCNC(=N)N)C(=O)N[C@H]1CSSC[C@@H](C(N)=O)NC(=O)[C@H](Cc2c[nH]c3ccccc23)NC(=O)[C@H](CCCNC(=N)N)NC(=O)[C@@H](Cc2ccccc2)NC(=O)[C@H](Cc2nc[nH]n2)NC(=O)[C@H](CCC(=O)O)NC1=O` [Compound No. 106]: 20.9 nM. In the case of `CC(=O)N[C@@H](Cc1ccc(O)cc1)C(=O)N[C@@H](CCCNC(=N)N)C(=O)N[C@H]1CSSC[C@@H](C(N)=O)NC(=O)[C@H](Cc2c[nH]c3ccccc23)NC(=O)[C@H](CCCNC(=N)N)NC(=O)[C@@H](Cc2ccccc2)NC(=O)[C@@H](Cc2nc[nH]n2)NC(=O)[C@H](CCC(=O)O)NC1=O` [Compound No. 107], the inhibition constant Ki was determined as 500 nM. On to `CC(=O)N[C@@H](Cc1ccc(O)cc1)C(=O)N[C@@H](CCCNC(=N)N)C(=O)N[C@H]1CSSC[C@@H](C(N)=O)NC(=O)[C@H](Cc2c[nH]c3ccccc23)NC(=O)[C@H](CCCNC(=N)N)NC(=O)[C@@H](Cc2ccccc2)NC(=O)[C@H](Cc2ccco2)NC(=O)[C@H](CCC(=O)O)NC1=O` [Compound No. 110, Ac-Tyr-Arg-cyclo[Cys-Glu-(β-(2-furyl)-Ala)-D-Phe-Arg-Trp-Cys]-NH2], for which the Ki turned out to be 117 nM. Regarding `CC(=O)N[C@@H](Cc1ccc(O)cc1)C(=O)N[C@@H](CCCNC(=N)N)C(=O)N[C@H]1CSSC[C@@H](C(N)=O)NC(=O)[C@H](Cc2c[nH]c3ccccc23)NC(=O)[C@H](CCCNC(=N)N)NC(=O)[C@@H](Cc2ccccc2)NC(=O)[C@H](Cc2cccs2)NC(=O)[C@H](CCC(=O)O)NC1=O` [Compound No. 111, Ac-Tyr-Arg-cyclo[Cys-Glu-(β-(thien-2-yl)-Ala)-D-Phe-Arg-Trp-Cys]-NH2], the Ki turned out to be 65.2 nM. Turning to `CC(=O)N[C@@H](Cc1ccc(O)cc1)C(=O)N[C@@H](CCCNC(=N)N)C(=O)N[C@H]1CSSC[C@@H](C(N)=O)NC(=O)[C@H](Cc2c[nH]c3ccccc23)NC(=O)[C@H](CCCNC(=N)N)NC(=O)[C@@H](Cc2ccccc2)NC(=O)[C@H](Cc2cscn2)NC(=O)[C@H](CCC(=O)O)NC1=O` [Compound No. 112, Ac-Tyr-Arg-cyclo[Cys-Glu-(β-(1,3-thiazol-4-yl)-Ala)-D-Phe-Arg-Trp-Cys]-NH2], the Ki worked out at 89 nM.

On to `CC(=O)N[C@@H](Cc1ccc(O)cc1)C(=O)N[C@@H](CCCNC(=N)N)C(=O)N[C@H]1CSSC[C@@H](C(N)=O)NC(=O)[C@H](Cc2c[nH]c3ccccc23)NC(=O)[C@H](CCCNC(=N)N)NC(=O)[C@@H](Cc2ccccc2)NC(=O)[C@H](Cc2ccncc2)NC(=O)[C@H](CCC(=O)O)NC1=O` [Compound No. 113, Ac-Tyr-Arg-cyclo[Cys-Glu-(β-(pyridin-4-yl)-Ala)-D-Phe-Arg-Trp-Cys]-NH2], for which the Ki stood at 37 nM. For the compound `CC(=O)N[C@@H](Cc1ccc(O)cc1)C(=O)N[C@@H](CCCNC(=N)N)C(=O)N[C@H]1CSSC[C@@H](C(=O)NCCO)NC(=O)[C@H](Cc2c[nH]c3ccccc23)NC(=O)[C@H](CCCNC(=N)N)NC(=O)[C@@H](Cc2ccccc2)NC(=O)[C@H](Cc2c[nH]cn2)NC(=O)[C@H](CCC(=O)O)NC1=O` [Compound No. 114, Ac-Tyr-Arg-cyclo[Cys-Glu-His-D-Phe-Arg-Trp-Cys]-glycinol], the Ki amounted to 1.35 nM.

The values above are taken from patent publication US20070105759A1 (priority 2003, published 2007).
